# scFv variants of Ab-14 (light chain) against a SARS-CoV-2 spike peptide

Source: Li et al. 2023 (doi:10.1038/s41467-023-39022-2), MIT Lincoln Laboratory and A-Alpha Bio; data file from the FLAb repository.

Binding partner: SARS-CoV-2 spike HR2 peptide, sequence PDVDLGDISGINAS.

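Phage display of a naive human antibody library on the peptide gave the parent. The variants were designed computationally from a first round of random CDR variants and then made and measured. Several design methods are mixed in this list. AlphaSeq pools MATa yeast showing the antibodies with MATalpha yeast showing the peptide. Binding brings cells together so that they mate, and sequencing counts the barcode pairs among the diploids. Each replicate has its own calibration line, from reference interactions of the BCL2 family. There are six technical replicates.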

The variants keep the heavy chain, the linker and the frameworks of Ab-14 (scFv order VH, a (GGGGS)3 linker, VL).
VH: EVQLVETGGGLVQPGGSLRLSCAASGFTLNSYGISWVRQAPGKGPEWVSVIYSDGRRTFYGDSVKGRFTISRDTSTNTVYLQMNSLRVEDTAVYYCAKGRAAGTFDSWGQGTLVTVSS
VL: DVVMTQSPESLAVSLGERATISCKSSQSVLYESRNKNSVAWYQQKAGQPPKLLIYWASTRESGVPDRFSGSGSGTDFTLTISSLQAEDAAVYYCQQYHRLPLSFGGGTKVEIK

Each variant is given by its three light chain CDRs, as the data file delimits them; those of the parent are KSSQSVLYESRNKNSVA, WASTRES, QQYHRLPLS.
Values are log10 of the apparent Kd in nM; lower means stronger binding.
A mean of the replicates is given; it leaves out those without a signal.
Where no diploid with the target was found in any replicate, the entry reads "nd": below detection, most likely a poor binder, though not proof of it.
The range of this assay differs from that of the first round, and the authors advise against merging the two.
Of ten entries with the parent sequence, four were seen in most replicates (averages 0.34 to 2.37), three in one and three in none, so single entries are noisy.
In the paper, a design with two or fewer of six values counts as a poor binder.
As a blank, each scFv also met three strains without target: over all light chain designs, 4% of these pairings were detected, typically at 2.64 and seldom below 1.59. Also given: how often the same scFv was detected with the empty control strains.

0.16 (6 of 6 replicates; controls 1 of 18): FLSQSDLYESRNKNSVA / EASTRES / QQYHRLPLS.
1.01 (6 of 6 replicates; controls 0 of 18): KLSQVTHSEMRNKNSIA / EMVTREV / QQYDRLPLS.
2.20 (1 of 6 replicates; controls 0 of 18): KSSQSRLYESKNKNSVA / WASTRES / QQYHRLKLS.
2.38 (2 of 6 replicates; controls 0 of 18): HFDDLMVEWDANQSQVA / DHNEAQH / QQYDRLPLS.
0.04 (6 of 6 replicates; controls 0 of 18): KLSNSTLYESRQKNSVA / NASTRES / QQYHRLPLS.
1.67 (6 of 6 replicates; controls 0 of 18): HITMGMYVKGRHHSSIA / QAETRAM / QQYDRLPLI.
1.68 (5 of 6 replicates; controls 0 of 18): IVSGGMLMESRNKNSVA / NAETREY / QHYDRLPLS.
nd (0 of 6 replicates; controls 2 of 18): KSSQSVLYESRNKHSVA / WASTRES / QQYHRWPLS.
0.29 (6 of 6 replicates; controls 0 of 18): QLEWYNSTATAAKNSVA / GVAHRMN / QQYMRLPLM.
1.27 (5 of 6 replicates; controls 0 of 18): ILQQSMWYESRNKNSVA / DASVRED / QQYHRLPLS.
0.73 (6 of 6 replicates; controls 1 of 18): TLMMGPTEARDSKHAIA / DNNERDR / QQYHRLPLY.
2.03 (4 of 6 replicates; controls 1 of 18): MVNGIMDHLSKQTNNVA / ETETRNS / QQYDRLPLS.
0.16 (6 of 6 replicates; controls 0 of 18): KLYDMSALTVTNIRNVA / DNSTREA / QQYHRLPLS.
-0.27 (6 of 6 replicates; controls 1 of 18): KLSQSVLYESRNKNSVA / EASCRES / QQYHRLPLS.
1.05 (6 of 6 replicates; controls 0 of 18): KFSASVLYESRYKNSVA / WASTREE / QQYHRLPLS.
0.18 (6 of 6 replicates; controls 1 of 18): HLSQSQDYESRNKNSVA / NASTRLH / QQYHRLPLS.
1.21 (6 of 6 replicates; controls 0 of 18): LISGVWDYGSRNYNSVA / QTSTRES / QQYDRLPLE.
0.26 (6 of 6 replicates; controls 0 of 18): KSYGSFLYESRNKNSVA / EASTRES / QQYHRLPLS.
2.38 (5 of 6 replicates; controls 2 of 18): TISGTLMFGMRNRSNVA / EVSQRLN / QQYDRLPLF.
-0.25 (6 of 6 replicates; controls 0 of 18): KSYISWLYESRNKNSVA / EASTRES / QQYHRLPLS.
-0.25 (6 of 6 replicates; controls 1 of 18): KLSQSMLYESRNKNSVA / QASTRES / QQYHRLPLS.
2.66 (5 of 6 replicates; controls 0 of 18): KSSQSVLYPSRNKNSVA / WASTRES / QQYHRLPLS.
-0.23 (6 of 6 replicates; controls 1 of 18): KLSQSELYESRNKNNVA / SASTRES / QQYHRLPLS.
0.28 (6 of 6 replicates; controls 1 of 18): KLPNSTLYESRQKNSVA / AASTRES / QQYHRLPLS.
3.12 (3 of 6 replicates; controls 1 of 18): HLSSNMWMESSMWDAVA / QGDIAMN / QDYSRLPLS.
0.13 (6 of 6 replicates; controls 0 of 18): KLQQLGLYEQRNCNSVA / SASTRCS / QQYHRLPLS.
0.34 (6 of 6 replicates; controls 1 of 18): KLSQSTLYESRNTNSVA / QASQRLS / QQYHRLPLS.
-0.30 (6 of 6 replicates; controls 1 of 18): KFSQSYLYESRNKNAVA / NASTRES / QQYHRLPLS.
0.96 (6 of 6 replicates; controls 1 of 18): KVSQSVLYESRNKNSVA / WASTRES / QQYHRLPLK.
-0.18 (6 of 6 replicates; controls 1 of 18): KMSQSMWYESRNSNSVA / NASNRLS / QQYHRLPLS.
2.20 (6 of 6 replicates; controls 1 of 18): KSSDSVLYESRNKNSVA / WASCRES / QQYHRLPLS.
0.71 (6 of 6 replicates; controls 0 of 18): MMSQVTGMESRQINNVA / QTSTREQ / QQYDRLPLI.
-0.03 (6 of 6 replicates; controls 0 of 18): KLQQSVLYESRMKNSVA / EASTRES / QQYHRLPLS.
1.72 (6 of 6 replicates; controls 0 of 18): MVSQLMLWGHLAKNSIA / EAQTRVN / QQYDRLPLF.
3.05 (4 of 6 replicates; controls 2 of 18): MLSDIVKMGSRNTNSVA / DNSTRGA / QQYDRLPLS.
1.27 (6 of 6 replicates; controls 3 of 18): KWSQSVLYESENCNSVA / WTSTRES / QQYHRLPLS.
-0.14 (6 of 6 replicates; controls 1 of 18): KLSQSFLYESRNKNSVA / NASTRES / QDYHRLPLS.
-0.08 (6 of 6 replicates; controls 1 of 18): KQSQSVLYESRNKNSVA / DASTRES / QQYFRLPLS.
0.22 (6 of 6 replicates; controls 2 of 18): KSSISELYESRMKNSVA / EASTRES / QQYHRLPLS.

The first 6 entries again:

With FLSQSDLYESRNKNSVA / EASTRES / QQYHRLPLS the result was 0.16 (6 of 6 replicates; controls 1 of 18).
With KLSQVTHSEMRNKNSIA / EMVTREV / QQYDRLPLS the result was 1.01 (6 of 6 replicates; controls 0 of 18).
With KSSQSRLYESKNKNSVA / WASTRES / QQYHRLKLS the result was 2.20 (1 of 6 replicates; controls 0 of 18).
With HFDDLMVEWDANQSQVA / DHNEAQH / QQYDRLPLS the result was 2.38 (2 of 6 replicates; controls 0 of 18).
With KLSNSTLYESRQKNSVA / NASTRES / QQYHRLPLS the result was 0.04 (6 of 6 replicates; controls 0 of 18).
With HITMGMYVKGRHHSSIA / QAETRAM / QQYDRLPLI the result was 1.67 (6 of 6 replicates; controls 0 of 18).